Screening results: PubChem BioAssay, National Center for Advancing Translational Sciences (NCATS)
B2AR arrestin = beta2AR (human) beta-arrestin recruitment activity; P07550; beta-arrestin recruitment to beta2AR, cell-based reporter; Potency, µM (top dose mostly 46.1 µM), inactives show at the highest dose activation, usual class: activators; 330,000 tested, 0.02% active; AID 492947;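 note: potency is the fitted concentration of half-maximal effect; 0% = DMSO controls and full agonism = EC100 isoproterenol or metaproterenol; nearly all actives have a fitted effect of over 65% in size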
A549 tox = counter-screen for Nrf2 inhibitors: cytotoxicity in A549 cells. AID 504648. A549 ARE-Fluc cells, CellTiter-Fluor viability, 18-24 h. Potency, µM (series often up to 46 µM), for inactives: at the highest dose activity change, negative = cytotoxicity, usual class: inhibitors. 390,000 tested, 0.16% active; note: potency is the fitted concentration of half-maximal effect; % is set by controls: 0 for no effect and ±100 for the full control effect
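A549 ARE_Fluc cells in 5% FBS OPTI-MEM were exposed to compounds in concentration-response for 18-24 h at 37 deg C. Viability was read by CellTiter-Fluor fluorescence (Ex 405/Em 525) after 30 min, before the luciferase read.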
Nrf2 ARE act = activators of Nrf2 (ARE) signaling. AREc32 ARE-luciferase reporter (MCF7-derived line), luminescence, 24 h. Potency, µM (doses to about 46.1 µM), for the others: at the highest dose activation, hits mostly activators. 410,000 tested, 0.31% active; note: potency is the fitted concentration of half-maximal effect; % of control where 0% means no effect; nearly all actives have a fitted effect of over 65% in size
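Steps: seed AREc32_Fluc cells (1000/well, 5% FBS OPTI-MEM); incubate overnight at 37 deg C; add 23 nL compound; incubate 24 hr; add Steady-Glo; hold 30 min RT; read luminescence.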
Nrf2 inh = blocks Nrf2 signaling | 360,000 tested, 2.1% active | A549 ARE-Fluc reporter, luciferase luminescence, 18-24 h | AID 504444 | Potency, µM (titrated, usually from 46 µM), inactives show top-dose activity change, negative = inhibition, usual class: inhibitors; note: potency is the fitted concentration of half-maximal effect; % is set by controls: 0 for no effect and ±100 for the full control effect; nearly all actives have a fitted effect of over 60% in size
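Nrf2 activity is the BugLite luminescence, read 15 min after reagent at room temperature, following CellTiter-Fluor cytotoxicity readout (30 min, 37C). Compound titrations were applied for 18-24 h to 5000 A549 ARE_Fluc cells/well in 5% FBS OPTI-MEM.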
miR-21 reporter = raises the signal of a miR-21 reporter | HeLa miR-21 FLuc reporter, luciferase, 48 h | Potency, µM (doses to about 38.3 µM), for the others: at the highest dose reporter change, positive = more light | 340,000 tested, under 10 active | AID 2288; active = well fitted rising curve with a large enough effect; inconclusive = small, poorly fitted or top-dose-only effect; inactive = no such curve, though single readings can be large or run the other way;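 also: % of control where 0% means no effect; miR-21 action dims this reporter so a rising signal means less miR-21 action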
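Compounds were titrated across several concentrations (up to approximately 40 uM) and incubated 48 hours with HeLa miR-21-FLuc reporter cells (miR-21 target sequence downstream of FLuc, endogenous miR-21). Readout was firefly luciferase luminescence after lytic detection reagent.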
Active calls of the source: *; ? = inconclusive; / = no result. Sampled rows, rich in hits. Any-hit rate of the full collection: about 2.2%. Unless noted, calls come from the whole dose curve; as a rule, active = well fitted curve in the direction sought with a large enough effect; inconclusive = small, poorly fitted or top-dose-only effect, or another doubt; inactive = no such curve, though single readings can be large; an effect the other way counts as inactive or inconclusive.

Letters – A = B2AR arrestin; B = A549 tox; C = Nrf2 ARE act; D = Nrf2 inh; E = miR-21 reporter
(1) FC(F)(F)c1nc(-c2ccncc2)ncc1-c1nnnn1-c1ccccc1
  A = 3% | B = -2% | C = 0% | D = -5% | E = 4%

(2) Fc1ccc(-n2nnnc2-c2cnc(-c3cccs3)nc2C(F)(F)F)cc1
  A = -1% | B = ? | C = -2% | D = 15µM* | E = ?

(3) FC(F)(F)c1nc(N2CCCC2)ncc1-c1nnnn1-c1ccc(Cl)cc1
  A = 0% | B = -13% | C = 3% | D = 13µM* | E = 19%

(4) FC(F)(F)c1ccncc1-c1nnnn1-c1ccc(Cl)cc1
  A = -1% | B = 0% | C = -1% | D = -4% | E = 13%

(5) Cc1cc(C)c(S(=O)(=O)Nc2ccc(-c3ccc(N4CCCCCC4)nn3)cc2)c(C)c1
  A = / | B = -7% | C = 0% | D = / | E = -27%

(6) O=C(CN1C(=O)/C(=C\c2ccccc2Cl)Sc2ccccc21)NCCCN1CCOCC1
  A = 0% | B = ? | C = ? | D = 21µM* | E = 3%

(7) Cc1cccc(NC(=O)c2ccc(S(=O)(=O)N3CCC(C)CC3)cc2)n1
  A = 0% | B = -3% | C = 4% | D = 15µM* | E = 13%

(8) O=C(Nc1ccccc1-c1nc2ccccc2[nH]1)c1ccc(S(=O)(=O)N2CCCCC2)cc1
  A = 0% | B = ? | C = -1% | D = ? | E = -4%

(9) CC1CCCCN1S(=O)(=O)c1ccc(C(=O)Nc2ccccc2-c2nc3ccccc3[nH]2)cc1 (centres undefined)
  A = 0% | B = -27% | C = 0% | D = 23µM* | E = 0%

(10) O=C(Nc1nnc(C2CC2)o1)c1ccc(S(=O)(=O)N2CCCCC2)cc1
  A = 0% | B = -6% | C = -1% | D = ? | E = 13%

An excerpt from above in order of their number in B2AR arrestin, rising:
cpd	SMILES	B2AR arrestin
4	FC(F)(F)c1ccncc1-c1nnnn1-c1ccc(Cl)cc1	-1%
8	O=C(Nc1ccccc1-c1nc2ccccc2[nH]1)c1ccc(S(=O)(=O)N2CCCCC2)cc1	0%
1	FC(F)(F)c1nc(-c2ccncc2)ncc1-c1nnnn1-c1ccccc1	3%

(next part)
Letters – A = B2AR arrestin; B = A549 tox; C = Nrf2 ARE act; D = Nrf2 inh; E = miR-21 reporter
(11) CC1CCN(S(=O)(=O)c2ccc(C(=O)Nc3nnc(C4CC4)o3)cc2)CC1
  A = -1% | B = ? | C = -1% | D = 12µM* | E = 24%

(12) CC1CCCCN1S(=O)(=O)c1ccc(C(=O)Nc2nnc(C3CC3)o2)cc1 (centres undefined)
  A = 0% | B = -16% | C = -1% | D = 13µM* | E = 16%

(13) O=C(Cc1ccccc1)Nc1sc2c(c1C(=O)Nc1cccc(Cl)c1)CCCC2
  A = / | B = 4% | C = / | D = 0% | E = /

(14) CC1CCCCN1S(=O)(=O)c1ccc(C(=O)Nc2nnc(-c3ccco3)o2)cc1 (centres undefined)
  A = 0% | B = ? | C = 0% | D = 21µM* | E = 26%

(15) CC[C@H](C)[C@H]1O[C@]2(CC[C@@H]1C)C[C@@H]1C[C@@H](CC=C(C)[C@@H](O[C@H]3C[C@H](OC)[C@@H](O[C@H]4C[C@H](OC)[C@@H](O)[C@H](C)O4)[C@H](C)O3)[C@@H](C)C=CC=C3CO[C@@H]4[C@H](O)C(C)=C[C@@H](C(=O)O1)[C@]34O)O2
  A = / | B = 23µM* | C = 5% | D = 5.8µM* | E = /

(16) Cc1nc(-c2ccc(C)c(N3CCN(C(=O)Nc4cccc(Cl)c4C)CC3)c2)no1
  A = / | B = -10% | C = 3% | D = / | E = 14%

(17) COc1ccc(NC(=O)Nc2sc3nc4n(c(=O)c3c2C)CCC(C)CC4)cc1OC (centres undefined)
  A = / | B = 2% | C = 6% | D = -19% | E = -27%

(18) COc1ccccc1NC(=S)NCc1ccccc1Cl
  A = 0% | B = 0% | C = 0% | D = 3% | E = 16%

(19) COc1ccc(NC(=S)NCc2ccccc2Cl)c(OC)c1
  A = -1% | B = 0% | C = 0% | D = 23µM* | E = 17%

(20) CC1CCC2(CC1)NC(=O)N(Cc1cccc(C(F)(F)F)c1)C2=O (centres undefined)
  A = 1% | B = -1% | C = 7% | D = 18µM* | E = 2%

(21) CC(CC(=O)NCc1ccc(Cl)cc1Cl)CC1=NS(=O)(=O)c2ccccc2N1 (centres undefined)
  A = / | B = 3% | C = 1% | D = / | E = 23%

(22) C=C(C(=O)c1ccccc1)C(CC(=O)c1ccccc1)c1ccccc1 (centres undefined)
  A = -1% | B = ? | C = 4% | D = 23µM* | E = ?

(23) O=C(O)CSc1nnc2c(n1)[nH]c1ccccc12
  A = 0% | B = -9% | C = 3% | D = 0% | E = -5%

(24) CC1CCN(C(=O)CSc2nnc3c(n2)[nH]c2ccccc23)CC1
  A = 0% | B = -24% | C = 0% | D = 8.2µM* | E = 4%

(25) CCOC(=O)c1cnc(N2CCN(c3ccc(C)cc3C)CC2)c2ccccc12
  A = / | B = 6% | C = 0% | D = / | E = -12%

(26) COc1ccc(C2Nc3ccccc3C(=O)N2Cc2cccnc2)cc1COc1ccc(NC(C)=O)cc1 (centres undefined)
  A = / | B = -6% | C = / | D = ? | E = /

(27) CCn1c(-c2cc(-c3ccc(C)cc3)nc3ccccc23)n[nH]c1=S
  A = -1% | B = -6% | C = 0% | D = -15% | E = -20%
